Target: LsrK (Salmonella typhimurium, UniProt Q8ZKQ6)
Details: 50 µM

Amino acid sequences for entries named in this document (tags omitted). A change or cut given only in a name is not applied to a line headed by its entry.
UniProt Q8ZKQ6: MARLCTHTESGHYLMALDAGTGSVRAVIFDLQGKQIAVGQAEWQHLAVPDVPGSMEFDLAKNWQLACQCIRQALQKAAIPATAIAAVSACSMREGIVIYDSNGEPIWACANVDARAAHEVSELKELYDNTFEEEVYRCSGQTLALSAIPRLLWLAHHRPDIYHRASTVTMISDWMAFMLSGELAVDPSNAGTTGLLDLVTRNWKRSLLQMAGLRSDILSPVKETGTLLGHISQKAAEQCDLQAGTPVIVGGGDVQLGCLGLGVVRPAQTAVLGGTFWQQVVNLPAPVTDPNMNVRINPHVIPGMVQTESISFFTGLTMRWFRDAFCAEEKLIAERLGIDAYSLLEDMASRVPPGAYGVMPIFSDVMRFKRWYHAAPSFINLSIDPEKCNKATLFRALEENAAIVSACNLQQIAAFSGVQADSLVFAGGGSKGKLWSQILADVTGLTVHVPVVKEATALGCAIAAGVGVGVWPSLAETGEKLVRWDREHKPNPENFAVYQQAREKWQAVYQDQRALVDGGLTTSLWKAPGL

CC1=C(/C=C/C(C)=C/C=C/C(C)=C/C(=O)O)C(C)(C)CCC1 [TRETINON]
Inhibition (%): 2

— publication PMC6627609 (2019)
